Assay results: publication PMC5248655 (ACS chemical neuroscience, 2015)

Test system: Sprague–Dawley male rats
Assay: Brain efflux index
Conditions: aged rats (24 months) after 26 day treatment; absolute value reached

For CCN(C)C(=O)Oc1cccc([C@H](C)N(C)C)c1 [rivastigmine, rivastigmine L-tartrate], the “^125I-Aβ40 BEI%” value was 67%.
